The source made the active and inactive calls. The rule behind the calls is not given here.

From ChEMBL document CHEMBL5126672, “Discovery of κ Opioid Receptor (KOR)-Selective d-Tetrapeptides with Improved In Vivo Antinociceptive Effect after Peripheral Administration” (ACS Med Chem Lett, 2022) come the findings set out here.

Experiment [1] concerns Mus musculus. Description: Antinociceptive activity in CD-1 mouse assessed as maximum possible effect at 10 nmol, icv measured after 15 to 120 mins by tail-flick test. Type of experiment: functional, organism-based. The following applies: time 15-120 min. The method in brief: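 Tail flick test in mice after intracerebroventricular injection of 10 nmol/mouse, with vehicle-treated and U50,488H control groups. Antinociception was expressed as maximum possible effect. N = 7 per group.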

Experiment [2] has as its system Mus musculus. The experiment in a line: Antinociceptive activity in CD-1 mouse assessed as maximum possible effect at 20 umol/kg, iv measured after 15 to 120 mins by tail-flick test. Type of experiment: functional, organism-based. The following applies: dose 20.0 µmol/kg, time 15-120 min. In a few lines: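 Intravenous dosing at 20 μmol/kg in mice, followed by tail flick testing with antinociception expressed as maximum possible effect. Vehicle-treated animals served as controls. N = 8.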

Consider `CN(C(=O)Cc1ccc(Cl)c(Cl)c1)C1CCCCC1N1CCCC1` (configuration not stated), for which the result in the experiment with Mus musculus [1] and with Mus musculus [2] was Active.
